Source: patent US20020183362A1, “2-Fluorobenzenesulfonyl compounds for the treatment of inflammation” (Pharmacia Corporation, priority 2000, published 2002)

The chains behind the UniProt entries cited, without tags or fusion partners. Residues count along the entry.
UniProt P23219, 24-599: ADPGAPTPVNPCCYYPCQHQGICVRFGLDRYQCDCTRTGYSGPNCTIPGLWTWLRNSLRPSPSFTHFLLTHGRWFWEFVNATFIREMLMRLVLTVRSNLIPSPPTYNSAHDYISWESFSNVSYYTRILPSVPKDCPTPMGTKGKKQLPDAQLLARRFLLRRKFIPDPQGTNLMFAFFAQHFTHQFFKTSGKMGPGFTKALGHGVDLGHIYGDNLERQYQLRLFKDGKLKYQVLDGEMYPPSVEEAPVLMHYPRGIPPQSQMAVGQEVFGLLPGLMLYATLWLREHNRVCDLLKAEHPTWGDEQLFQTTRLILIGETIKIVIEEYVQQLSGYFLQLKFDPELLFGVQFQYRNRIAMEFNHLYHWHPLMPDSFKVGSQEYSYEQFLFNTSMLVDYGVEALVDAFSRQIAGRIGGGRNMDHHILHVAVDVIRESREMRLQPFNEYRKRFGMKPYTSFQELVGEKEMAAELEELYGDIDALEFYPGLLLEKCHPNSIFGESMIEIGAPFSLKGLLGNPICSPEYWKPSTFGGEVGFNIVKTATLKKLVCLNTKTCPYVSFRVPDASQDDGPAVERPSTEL

Assays:
Human COX-1 [1] = molecular target: T1, Human COX-1 (Homo sapiens, UniProt P23219); experiment: Assay for COX-1 and COX-2 activity (PGE2 ELISA, recombinant enzyme), COX-1; type: biochemical; conditions: Table I; pre-incubated 10-20 minutes, arachidonic acid 10 μM, stopped after ten minutes, pH 8.0
T1 construct: A 2.0 kb fragment containing the coding region of either human or murine COX-1 or human or murine COX-2; made in house; host or cells: SF9 insect cells (baculovirus, transfer vector pVL1393)
Experimental: (§1) Recombinant baculoviruses were isolated by transfecting 4 μg of baculovirus transfer vector DNA into SF9 insect cells (2×10^8) along with 200 ng of linearized baculovirus plasmid DNA by the calcium phosphate method. See M. D. Summers and G. E. Smith, A Manual of Methods for Baculovirus Vectors and Insect Cell Culture Procedures, Texas Agric. Exp. Station Bull. […] Recombinant viruses were purified by three rounds of plaque purification and high titer (10^7-10^8 pfu/mL) stocks of virus were prepared. For large scale production, SF9 insect cells were infected in 10 liter fermentors (0.5×10^6/mL) with the recombinant baculovirus stock such that the multiplicity of infection was 0.1. After 72 hours the cells were centrifuged and the cell pellet homogenized in Tris/Sucrose (50 mM: 25%, pH 8.0) containing 1% 3-[(3-cholamidopropyl)dimethylammonio]-1-propanesulfonate (CHAPS). The homogenate was centrifuged at 10,000×G for 30 minutes, and the resultant supernatant was stored at −80° C. before being assayed for COX activity.
(§2) COX activity was assayed as PGE2 formed/μg protein/time using an ELISA to detect the prostaglandin released. […] The PGE2 formed was measured by standard ELISA technology (Cayman Chemical).

Human COX-1 [2] = molecular target: T1, Human COX-1; experiment: Fast assay for COX-1 and COX-2 activity (PGE2 ELISA), COX-1; type: biochemical; conditions: Table II, pre-incubated 10 minutes at 25° C., arachidonic acid 10 μM, stopped after two minutes, pH 7.5
Experimental: as §1, §2

Structure (SMILES): COc1ccc(-c2cc(C(F)(F)F)nn2-c2ccc(S(N)(=O)=O)c(F)c2)cc1 [Example 7, 2-Fluoro-4-[5-(4-methoxyphenyl)-3-(trifluoromethyl)-1H-pyrazol-1-yl]benzenesulfonamide]
- IC50 (Human COX-1 [1]): 7.72 µM
- IC50 (Human COX-1 [2]): 5.25 µM
